In the assay the target is Insulin-like growth factor-binding protein 5 (Homo sapiens, UniProt P24593). As to the kind of experiment: Dissociation constant binding to Insulin-like growth factor binding protein 5 at the residue L-81.

Sequences of proteins named here, by UniProt entry; tags and fusion partners are left off.
UniProt P24593, whole entry: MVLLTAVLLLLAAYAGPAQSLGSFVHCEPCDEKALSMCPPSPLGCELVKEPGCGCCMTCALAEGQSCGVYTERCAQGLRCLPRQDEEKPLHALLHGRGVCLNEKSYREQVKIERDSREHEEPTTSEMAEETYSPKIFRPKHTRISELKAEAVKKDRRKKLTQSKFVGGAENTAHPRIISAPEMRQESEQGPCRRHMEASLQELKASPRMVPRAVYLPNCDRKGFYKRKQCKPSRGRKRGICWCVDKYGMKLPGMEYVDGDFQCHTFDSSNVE

One may read the Kd as the constant that tells how readily two partners part at equilibrium. A lower Kd goes with a tighter complex. Regarding `CC(C)C[C@@H](NC(=O)OCC1c2ccccc2-c2ccccc21)C(=O)O` [N- (9-FLUORENYLMETHOXYCARBONYL)-L-LEUCINE], the Kd was found to be 1090 µM.

These data come from ChEMBL document CHEMBL1135598, “In silico and NMR identification of inhibitors of the IGF-I and IGF-binding protein-5 interaction” (J Med Chem, 2002).
